We go through 2 molecules from PubChem BioAssay AID522 (The Scripps Research Institute Molecular Screening Center, 2006).

Chains of the proteins cited; added tags and fusions are not shown.
UniProt Q13285, whole entry: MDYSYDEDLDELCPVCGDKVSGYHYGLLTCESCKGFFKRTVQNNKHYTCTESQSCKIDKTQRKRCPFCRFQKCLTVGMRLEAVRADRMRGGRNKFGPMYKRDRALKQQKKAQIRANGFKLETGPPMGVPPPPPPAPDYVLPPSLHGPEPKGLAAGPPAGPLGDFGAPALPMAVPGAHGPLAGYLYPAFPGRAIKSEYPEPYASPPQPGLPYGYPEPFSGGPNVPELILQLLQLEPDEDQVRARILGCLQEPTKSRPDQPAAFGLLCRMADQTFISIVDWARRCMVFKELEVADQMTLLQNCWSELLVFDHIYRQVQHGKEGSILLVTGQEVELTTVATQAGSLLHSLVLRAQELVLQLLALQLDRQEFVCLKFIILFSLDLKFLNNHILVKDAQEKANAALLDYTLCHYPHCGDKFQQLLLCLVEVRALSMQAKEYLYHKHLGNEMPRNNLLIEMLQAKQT

The list shows a part of the results, in another mix than the full data. Some tests of the compounds listed are not included; inactive here does not mean inactive elsewhere. Activity calls are given as the source filed them.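 Rule for the calls: active = activation above the mean activation of all tested compounds plus 3 SD (cut at about 50% in these data); inactive = the rest.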

This experiment deals with Steroidogenic factor 1 (Homo sapiens) (UniProt Q13285). Description: SF-1 ligand-binding domain transactivation enhancers – cell-based, CHO-K1, Gal4-SF-1 LBD, luciferase luminescence, primary screen (AID 522). As to conditions: CHO-K1 Gal4-SF-1 LBD luciferase reporter; at 10 µM; hits give high values; % increase over DMSO SF-1-specific signal. The essentials: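 Material: Gal4–SF-1 LBD one-hybrid luciferase reporter in CHO-K1 cells | Amount: 4,000 cells per well | Compound dosing: 10 µM single point, 1% DMSO | Schedule: 20 h compound treatment, 37 °C | Measured by: SteadyLite luciferase luminescence | Evaluation: Percent activation versus DMSO | Control set: DMSO-treated SF-1-transfected cells as negative, DMSO-treated mock-transfected cells lacking SF-1 as background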
A general note: A reporter such as luciferase makes a cellular process visible.
As for `CN(C)c1cccc(C(=O)NCC2(N(C)C)CCCCC2)c1`, the activation is inactive: 0.4%.
The value for `O=C(OC1CN2CCC1CC2)C(CO)(c1ccccc1)c1ccccc1` (configuration not stated) was inactive: 4.9%.
